Only a part is listed here, and it is no random draw. Activity calls are given as the source filed them.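 How the source made its calls: active means activation factor of 2 or more at 20 µM, a signal rise over negative controls twice the positive control's; inactive means the rest.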

For the assay, the system named is alkaline phosphatase, intestinal [Bos taurus]. Briefly: bovine intestinal alkaline phosphatase activators, primary screen, biochemical, bovine IAP, CDP-star luminescence (AID 1016). Particulars: purified bovine IAP, 30 min, at 20 µM, active compounds read high, fold of DMSO-control signal, blank-subtracted.
As to `COc1ccc(CN(CCCl)CCCl)cc1Cl`, the activation factor was inactive: 1.2. For `CN(C)c1cccc(C(=O)NCC2(N3CCCCC3)CCCCC2)c1`, the activation factor was inactive: 1.2. As for `CC(C)c1ccc(NC2CCN(C(=O)OC(C)(C)C)CC2)cc1`, the figure is inactive: 1.1; as for `COc1ccc(NC2CCN(C(=O)OC(C)(C)C)CC2)cc1`, inactive: 1.1. As for `CN1CCN(CCOC(=O)C(O)(c2ccccc2)c2ccccc2)CC1`, the figure is inactive: 1. In the case of `O=C(NCC1(N2CCOCC2)CCCCC1)c1cc(=O)[nH]c2ccccc12` it was inactive: 1; in that of `O=C(NCC1(N2CCCCC2)CCCCC1)c1cccc([N+](=O)[O-])c1`, inactive: 0.9. With `N#CC1(Nc2ccccc2)CCN(CCc2ccccc2)CC1`, the activation factor is inactive: 1.

Take `COc1ccc(NC2CCN(CCc3ccccc3)CC2)c(OC)c1`: the activation factor is inactive: 1.1. As to `O=C(NCC1(N2CCOCC2)CCCCC1)c1cc2ccccc2o1`, the activation factor was inactive: 0.9. As for `CCOC(=O)N1CCC(Nc2ccc(OC)cc2)CC1`, the figure is inactive: 1; as for `O=C(OC1CN2CCC1CC2)C1c2ccccc2Oc2ccccc21` (stereo not given), inactive: 1.1; as for `COc1ccc(C(=O)NCC2(N3CCCCC3)CCCCC2)c(OC)c1OC`, inactive: 1.3. In the case of `CCC(CO)(C(=O)OC1CN2CCC1CC2)c1ccccc1` (stereo not given) it was inactive: 1.1. As for `COc1cc(OC)cc(C(=O)NCC2(N3CCOCC3)CCCCC2)c1`, the figure is inactive: 1. `CCOc1ncccc1C(=O)NCC1(N2CCOCC2)CCCCC1`: the activation factor was inactive: 1. As to `CC(C)(C)OC(=O)N1CCC(Nc2ccccc2)CC1`, the activation factor is inactive: 1.1. For the compound `CCN1CCC(Nc2cccc(F)c2)CC1`, the activation factor is inactive: 0.9. For the compound `CN(C)c1ccc(C(=O)NCC2(N3CCCCC3)CCCCC2)cc1`, the activation factor is inactive: 1.1. In the case of `Fc1ccccc1NC1CCN(Cc2ccccc2)CC1` it was inactive: 1.1; in that of `c1ccc(CN2CCC(Nc3ccccc3)CC2)cc1`, inactive: 1. As for `N#Cc1ccc(C(=O)NCC2(N3CCCCC3)CCCCC2)cc1`, the figure is inactive: 1.1. In the case of `N/C(=N\O)c1c(N)no[n+]1[O-]` it was inactive: 0.9.

As to `O=C(OC1CN2CCC1CC2)C1c2ccccc2C=Cc2ccccc21` (stereo not given), the activation factor is inactive: 0.8. As for `COc1ccc(C(=O)NCC2(N3CCOCC3)CCCCC2)cc1OC`, the figure is inactive: 0.9.

Source of the values: PubChem BioAssay AID1016 (Sanford-Burnham Center for Chemical Genomics, 2008).
